{"source": "the Kinase Knowledgebase extract (Sharma et al. 2016)", "biological_target": "CDK2 (UniProt P24941)", "assay": "Enzyme Assay"}
{"smiles": "Cc1cc(=O)n(C2CCCC2)c2nc(Nc3ccc(N4CCNCC4)cc3)ncc12", "values": [{"measurement": "IC50", "result": "> 5", "unit": "µM"}]}
